A value given as a limit tells only on which side of the number the result lay.

For this test, the system named is Ba/F3-KDR-transfected cells. The experiment in a line: Ba/F3-KDR (minus IL3 or plus IL3) cellular proliferation assay. Type of test: cell-based. To be noted: plus IL3 (counterscreen, 10 ng/ml murine IL3); read-out: BAF3-KDR (PLUS IL3 pIC50) (converted). On the procedure:
Ba/F3-KDR (Minus IL3 or Plus IL3) (Cellular Proliferation Assay)
As a counterscreen the same experiment was performed in the presence of 10 ng/ml murine IL3.
(In general: The purpose of a counterscreen is to sort out artefacts and off-target activity.)
Regarding `COc1cc(OC)c(F)c(N(Cc2nccn2S(=O)(=O)N(C)C)c2ncc3ncc(-c4cnn(C)c4)nc3n2)c1F` [Compound 1], the IC50 is over 10 µM.

As for `COc1cc(OC)c(F)c(N(Cc2ncc[nH]2)c2ncc3ncc(-c4cnn(C)c4)nc3n2)c1F` [Compound 2], the IC50 is over 10 µM.

As to `COc1cc(OC)c(F)c(N(C[C@H]2CCC(=O)N2)c2ncc3ncc(-c4cnn(C)c4)nc3n2)c1` [Compound 10], the IC50 was over 10 µM.

`COc1cc(OC)c(F)c(N(C[C@@H]2CCC(=O)N2)c2ncc3ncc(-c4cnn(C)c4)nc3n2)c1` [Compound 11]: the IC50 is over 10 µM.

For `COc1cc(OC)c(F)c(N(Cc2ncc[nH]2)c2ncc3ncc(-c4cnn(C)c4)nc3n2)c1` [Compound 13], the IC50 is over 10 µM.

The record behind these values is patent US10272087B2, “Pteridines as FGFR inhibitors” (ASTEX THERAPEUTICS LIMITED, priority 2012, dated 2019).
